Measurements: US6333313A, “Clinical use of oxytocin alone or in combination to treat bone disorders” (Board of Regents, The University of Texas System, priority 1999, dated 2001)

Experiments:
Type in all cases: cell-based
Settings in all cases: 100 nM OTA, 10 nM OT
[1] = target: T1, OTR (Homo sapiens, UniProt P30559); test: Intracellular calcium levels, Saos-2 cells
T1 sequence (P30559 1-389): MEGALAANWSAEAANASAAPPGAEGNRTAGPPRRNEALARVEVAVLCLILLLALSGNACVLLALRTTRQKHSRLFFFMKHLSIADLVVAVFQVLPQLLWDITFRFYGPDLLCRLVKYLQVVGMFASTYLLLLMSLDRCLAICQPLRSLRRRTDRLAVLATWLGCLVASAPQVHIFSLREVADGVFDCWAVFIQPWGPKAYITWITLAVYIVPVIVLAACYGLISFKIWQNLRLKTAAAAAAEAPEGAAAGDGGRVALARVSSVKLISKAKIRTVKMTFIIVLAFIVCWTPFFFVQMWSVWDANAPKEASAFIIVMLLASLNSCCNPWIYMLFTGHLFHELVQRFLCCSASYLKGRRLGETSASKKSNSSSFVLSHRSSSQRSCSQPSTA
Method: (§1) FIG. 3A, FIG. 3B and FIG. 3C Intracellular calcium transients after 10 nM oxytocin treatment. (FIG. 3A.) Undifferentiated osteoblastic cells; (FIG. 3B.) differentiated osteoblastic cells; and (FIG. 3C.) Saos-2 cells. Cells were incubated at 37C and treated in the following manner; 100 nM OTA for 1 min, […], wash cells 3 times to remove bound antagonist, 10 min recovery, and then 10 nM OT treatment.
(§2) Cell Culture Conditions: Human osteosarcoma cells (Saos-2) cells were obtained from the ATCC (Rockville, Md.). Human osteoblasts (Cheng et al., 1994; Civitelli et al., 1993) were prepared from explants of cultured rib trabecular. These cells were grown in mineralizing media consisting of DMEM supplemented with 10% fetal bovine serum (FBS), 2% penicillin/streptomycin, dexamethasone (100 nM), ascorbate (50 μg/ml, and β3-glycerophosphate (10 μg/ml) in a humidified tissue culture incubator at 37C under an atmosphere of 5% CO2 and 95% air. These conditions accelerate the osteoblastic modulation of undifferentiated human trabecular bone cells and the production of osteogenic mineralizeable collagen matrix (Cheng et al., Civitelli et al., 1993). To retain undifferentiated osteoblastic phenotype, cells were cultured in the absence of dexamethasone, ascorbate, and β-glycerophosphate. […]

[2] = target: T1, OTR; test: Intracellular calcium levels, undifferentiated osteoblastic cells; set-up: Undifferentiated or differentiated human trabecular bone cells with osteogenic capacity in primary culture express oxytocin receptors (OTRs); endogenous in cells; host or cells: primary human osteoblastic cells from rib trabecular bone explants (undifferentiated, or differentiated in mineralizing medium)
Method: as §1, §2

[3] = target: T1, OTR; test: Intracellular calcium levels, differentiated osteoblastic cells; set-up: Undifferentiated or differentiated human trabecular bone cells with osteogenic capacity in primary culture express oxytocin receptors (OTRs); endogenous in cells; host or cells: primary human osteoblastic cells from rib trabecular bone explants (undifferentiated, or differentiated in mineralizing medium)
Method: as §1, §2

Measured: block of OT induced rise in [Ca2+]i

[d(CH2)5, Tyr(Me)^2, Thr^4, Tyr-NH2^9 ] OVT [Oxytocin antagonist]
completely blocked: all assays above
